{"sequences": {"note": "Protein sequences, listed by entry. Tags and fused reporters are not part of them. Lines headed by an entry give the natural chain unless they say otherwise; changes in a name come on top.", "UniProt P33533, whole entry": "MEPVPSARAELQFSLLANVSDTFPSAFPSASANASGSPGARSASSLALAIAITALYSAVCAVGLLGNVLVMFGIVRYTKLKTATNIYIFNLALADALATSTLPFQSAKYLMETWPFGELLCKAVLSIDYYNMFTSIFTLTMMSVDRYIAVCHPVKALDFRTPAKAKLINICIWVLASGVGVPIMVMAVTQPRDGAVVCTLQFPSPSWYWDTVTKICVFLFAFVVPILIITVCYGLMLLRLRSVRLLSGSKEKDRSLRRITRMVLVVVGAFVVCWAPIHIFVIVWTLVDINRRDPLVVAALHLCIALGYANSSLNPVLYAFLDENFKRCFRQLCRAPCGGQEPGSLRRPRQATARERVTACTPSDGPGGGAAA"}, "source": "paper PMC7321161", "about": "“The Intriguing Effects of Substituents in the N-Phenethyl Moiety of Norhydromorphone: A Bifunctional Opioid from a Set of “Tail Wags Dog” Experiments” (Molecules, 2020)", "biological_target": "T1, δ-opioid receptor (DOR) (Rattus norvegicus, UniProt P33533)", "T1 construct": "Frozen whole rat brains excluding cerebellum were thawed on ice; from tissue; host or cells: whole rat brain excluding cerebellum, membrane homogenate", "experiment": "Opioid receptor binding, δ sites ([3H]DADLE), rat brain homogenate", "conditions": "radioligand displacement at 100 nM", "data": [{"smiles": "CN1CC[C@]23c4c5ccc(O)c4O[C@H]2[C@@H](O)C=C[C@H]3[C@H]1C5", "note": "[Morphine, reference compound]", "values": [{"measurement": "DOR Binding, exploratory binding assay", "result": "NT (NT = not tested—inactive (<50% activity at 100 nM concentration in exploratory binding assays (displaced less than half of radioligand))"}]}]}
